Results from ChEMBL document CHEMBL1124219, “Inhibition of porcine pepsin by two substrate analogues containing statine. The effect of histidine at the P2 subsite on the inhibition of aspartic proteinases” (J Med Chem, 1988).

Protein sequences, listed by entry. Tags and fused reporters are not part of them. Lines headed by an entry give the natural chain unless they say otherwise; changes in a name come on top.
UniProt P00797: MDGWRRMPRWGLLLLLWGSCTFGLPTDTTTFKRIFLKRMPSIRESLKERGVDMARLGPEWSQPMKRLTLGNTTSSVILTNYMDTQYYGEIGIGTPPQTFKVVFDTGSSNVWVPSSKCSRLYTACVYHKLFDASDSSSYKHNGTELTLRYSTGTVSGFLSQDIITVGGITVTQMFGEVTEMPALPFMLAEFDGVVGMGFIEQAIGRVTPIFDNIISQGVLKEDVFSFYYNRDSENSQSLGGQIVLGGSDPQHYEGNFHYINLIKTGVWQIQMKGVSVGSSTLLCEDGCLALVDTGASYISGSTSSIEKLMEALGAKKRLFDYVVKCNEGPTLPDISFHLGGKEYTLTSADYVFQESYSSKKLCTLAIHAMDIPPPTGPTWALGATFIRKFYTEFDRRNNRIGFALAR

Target: Renin (Homo sapiens, UniProt P00797)
Test: Inhibition of human renin at pH 6.0

IC50: 17 nM
SMILES: COC(=O)C[C@H](O)[C@H](CC(C)C)NC(=O)[C@H](C)NC(=O)C[C@H](O)[C@H](CC(C)C)NC(=O)[C@H](Cc1c[nH]c2ccccc12)NC(=O)[C@H](Cc1c[nH]c2ccccc12)NC(=O)OC(C)(C)C
